# Screens: PubChem BioAssay, National Center for Advancing Translational Sciences (NCATS)
# A549 tox – A549 cytotoxicity, counter-screen for Nrf2 inhibitors; A549 ARE-Fluc cells, CellTiter-Fluor viability, 18-24 h; Potency, µM (doses to about 46 µM), for the others: top-dose activity change, negative = cytotoxicity, hits mostly inhibitors; hit rate 0.16% among 390,000; AID 504648; further: potency means the concentration at half of the fitted maximal effect; on the % scale 0 is the no-effect control and ±100 the full control effect
#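 Cytotoxicity counterscreen: CellTiter-Fluor fluorescence was measured in A549 ARE_Fluc cells after 18-24 h of compound exposure in a concentration series. The subsequent BugLite luminescent read reports ARE-luciferase activity.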
# Nrf2 activator – activates Nrf2 signaling | AREc32 ARE-luciferase reporter (MCF7-derived line), luminescence, 24 h | Potency, µM (series often up to 46.1 µM), inactives show at the highest dose activation, hits mostly activators | hit rate 0.31% among 410,000 | AID 624171; further: potency means the concentration at half of the fitted maximal effect; % of control where 0% means no effect; nearly all actives have a fitted effect of over 65% in size
#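 Reporter line AREc32 (ARE-Fluc), seeded overnight in OPTI-MEM with 5% FBS; compound pin-transferred, 24 hr at 37 deg C, 5% CO2; luminescent read-out.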
# p53 reactivator – restores transcriptional activity of mutant p53; H1299 p53-A138V BP100-luciferase reporter, luminescence, 24 h; Potency, µM (highest dose often 92.2 µM), inactives show top-dose activity change, positive = activation, actives largely listed as activators; hit rate 0.063% among 320,000; AID 504706; further: potency means the concentration at half of the fitted maximal effect; % of control where 0% means no effect; nearly all actives have a fitted effect of over 45% in size
#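 p53-null H1299 cells stably carrying temperature-sensitive p53-A138V and a BP100-luciferase reporter were pinned with compounds (4-point, 1:5 series) and held 24 hrs at 37 deg C. Luminescence was read 10 min after detection reagent.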
# ClpP mod – qHTS Assay for Activators of ClpP. purified B. subtilis ClpP, FRET peptide cleavage, 20 min. Potency, µM (series often up to 57.5 µM), inactives show at the top dose activity change, negative = active. hit rate 1.9% among 340,000; active means well fitted falling curve with a large enough effect; inconclusive means small, poorly fitted or top-dose-only effect; inactive means no such curve, though single readings can be large or run the other way; further: potency means the concentration at half of the fitted maximal effect; the source files actives as falling curves though it sought activators and does not explain the sign; nearly all actives have a fitted effect of over 65% in size
#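 Buffer: 100 mM Tris/HCl pH8, 100 mM KCl, 0.05% low protease BSA, 2.5% glycerol, 0.01% Tween-20. ClpP 10 microg/mL final; 20 min RT; delta FRET normalized to ADEP and DMSO controls.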
# miR-21 reporter – raises the signal of a miR-21 reporter | Potency, µM (doses to about 38.3 µM), for inactives: top-dose reporter change, positive = more light | HeLa miR-21 FLuc reporter, luciferase, 48 h | AID 2288 | 340,000 tested, under 10 active; active = well fitted rising curve with a large enough effect; inconclusive = small, poorly fitted or top-dose-only effect; inactive = no such curve, though single readings can be large or run the other way;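 also: % of control where 0% means no effect; miR-21 action dims this reporter so a rising signal means less miR-21 action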
#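 Luminescence from a firefly luciferase reporter carrying a miR-21 binding site downstream, stably expressed under a CMV promoter in HeLa cells that make miR-21 endogenously, reports miRNA modulation after 48 h compound exposure up to approximately 40uM final.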
# Nrf2 block – Nrf2 pathway inhibition. AID 504444. A549 ARE-Fluc reporter, luciferase luminescence, 18-24 h. Potency, µM (series often up to 46 µM), for inactives: at the top dose activity change, negative = inhibition, hits mostly inhibitors. hit rate 2.1% among 360,000; further: potency means the concentration at half of the fitted maximal effect; on the % scale 0 is the no-effect control and ±100 the full control effect; nearly all actives have a fitted effect of over 60% in size
#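 In this cell-based qHTS, ARE-driven firefly luciferase in A549 cells reports Nrf2 activity; the luminescent signal after BugLite lysis is the measured value, with a prior CellTiter-Fluor read for cell health.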
# * marks the source's active call; other numbers are inactive results; u = inconclusive; x = no result. In the library only some 3.7% were active in any assay of this set; here they are far more common. Unless noted, the call rests on the fitted dose curve; in most records, active means well fitted curve in the direction sought with a large enough effect; inconclusive means small, poorly fitted or top-dose-only effect, or another doubt; inactive means no such curve, though single readings can be large; an effect the other way counts as inactive or inconclusive.
# Key to letters: A = A549 tox; B = Nrf2 activator; C = p53 reactivator; D = ClpP mod; E = miR-21 reporter; F = Nrf2 block
> Cc1ccc2nsnc2c1S(=O)(=O)Nc1cccc2nsnc12
  A: -18% | B: 0% | C: -1% | D: 1% | E: -8% | F: -18%

> CC(C)c1cc(C(C)C)c(S(=O)(=O)Nc2cccc3cccnc23)c(C(C)C)c1
  A: 11% | B: x | C: x | D: x | E: x | F: u

> Cc1ccc(S(=O)(=O)Nc2cccc3cccnc23)cc1
  A: -25% | B: u | C: -13% | D: u | E: u | F: 6.5µM*

> Cc1ccc2nsnc2c1S(=O)(=O)Nc1cccc2cccnc12
  A: u | B: x | C: x | D: x | E: x | F: 8.2µM*

> Cc1ccc(S(=O)(=O)Nc2cccnc2)cc1C
  A: -4% | B: 0% | C: u | D: 1% | E: -3% | F: 0%

> CCc1ccc(NC(=O)CCNS(=O)(=O)c2ccc3c(c2)CCCC(=O)N3)cc1
  A: 9% | B: -1% | C: x | D: 0% | E: -1% | F: 4%

> CCCCOc1ccc(Br)cc1/C(C)=N/NC1=NCCN1
  A: 12µM* | B: 5% | C: -4% | D: -1% | E: u | F: u

> CNC(=O)c1cc2c(n(-c3ccc(C)cc3)c1=O)CC(C)(C)CC2=O
  A: 0% | B: 0% | C: x | D: 4% | E: -7% | F: -10%

> Cc1ccc(SC/C(O)=C(\C#N)c2nc3ccccc3s2)cc1
  A: -16% | B: 5% | C: u | D: 25µM* | E: -5% | F: u

> N#C/C(=C(/O)COc1ccc(Cl)cc1)c1nc2ccccc2s1
  A: 16µM* | B: 2% | C: 7% | D: x | E: -4% | F: 23µM*

> COC(=O)c1sccc1S(=O)(=O)N(CC(=O)Nc1cc(C)cc(C)c1)c1ccc(Cl)cc1
  A: -2% | B: 7% | C: x | D: -3% | E: 20% | F: u

> COc1cc(-c2nc3nc(C)cc(C)n3c2Nc2ccc(Cl)cc2)ccc1O
  A: 2% | B: 3% | C: x | D: -3% | E: 13% | F: u

> CCOc1ccccc1CNCc1c(C(=O)O)n(Cc2ccc(F)cc2)c2cc(C)ccc12
  A: 18µM* | B: 0% | C: x | D: 3% | E: -7% | F: u

> COc1ccc(Cn2c(C(=O)O)c(CNCc3cccs3)c3ccc(C)cc32)cc1
  A: u | B: 6% | C: x | D: -9% | E: 14% | F: -22%

> C=Cc1ccc(Cn2c(C(=O)O)c(CNCc3cccs3)c3ccc(C)cc32)cc1
  A: 15µM* | B: 0% | C: x | D: -9% | E: 21% | F: -27%

> Cc1ccc2c(CNCc3cccs3)c(C(=O)O)n(Cc3ccc(F)cc3)c2c1
  A: 12µM* | B: 4% | C: x | D: -16% | E: 15% | F: -22%

> C=Cc1ccc(Cn2c(C(=O)O)c(CNCc3ccc(F)cc3)c3ccc(C)cc32)cc1
  A: u | B: -2% | C: x | D: -24% | E: u | F: -2%

> COc1ccc(Cn2c(C(=O)O)c(CNCc3ccc(OC)cc3OC)c3ccc(C)cc32)cc1
  A: 13µM* | B: 4% | C: x | D: -13% | E: 0% | F: u

> COc1ccc(Cn2c(C(=O)O)c(CNCCc3cc(OC)ccc3OC)c3ccc(C)cc32)cc1
  A: u | B: -1% | C: x | D: -2% | E: u | F: u

> CCOc1ccccc1NS(=O)(=O)c1cc2[nH]c(=O)c(=O)[nH]c2cc1C
  A: 12% | B: 0% | C: x | D: -27% | E: -1% | F: 9%

> Cc1ccccc1CSc1nc2c(sc3ccccc32)c(=O)n1CCCC(=O)NCCCOC(C)C
  A: -5% | B: 1% | C: x | D: -2% | E: 0% | F: 0%

> N#Cc1ccc(-c2ccc(F)cc2)nc1Oc1ccc(Cl)c(Cl)c1
  A: 0% | B: -1% | C: 5% | D: 40µM* | E: -1% | F: -10%

> CCOc1ccc(-c2cc3c(=O)n(Cc4nc(-c5ccc(OC)cc5OC)oc4C)ccn3n2)cc1Cl
  A: -3% | B: 0% | C: x | D: -4% | E: -33% | F: 21%

> Cc1ccc(/C=C/C(=O)c2ccccc(=O)c2O)c(C)c1
  A: u | B: 28% | C: u | D: 0% | E: 18% | F: 21µM*

> Cc1ccc(C)c(/C=C/C(=O)c2ccccc(=O)c2O)c1
  A: u | B: u | C: x | D: 2% | E: u | F: 23µM*

# Some of these compounds in order of their number in miR-21 reporter, largest number first.
SMILES | p53 reactivator | miR-21 reporter | Nrf2 block
Cc1ccccc1CSc1nc2c(sc3ccccc32)c(=O)n1CCCC(=O)NCCCOC(C)C | x | 0% | 0%
CCc1ccc(NC(=O)CCNS(=O)(=O)c2ccc3c(c2)CCCC(=O)N3)cc1 | x | -1% | 4%
Cc1ccc(S(=O)(=O)Nc2cccnc2)cc1C | u | -3% | 0%
N#C/C(=C(/O)COc1ccc(Cl)cc1)c1nc2ccccc2s1 | 7% | -4% | 23µM*

# Later entries:
# Key to letters: A = A549 tox; B = Nrf2 activator; C = p53 reactivator; D = ClpP mod; E = miR-21 reporter; F = Nrf2 block
> CC(=O)Nc1ccc(NC(=O)c2ccc3c(c2)N(Cc2cccc(Cl)c2)C(=O)c2ccccc2S3=O)cc1 (stereo not given)
  A: 0% | B: 5% | C: x | D: 0% | E: 8% | F: x

> CCCCN(CC)CCNC(=O)c1nn(C)c2c1CS(=O)(=O)c1ccccc1-2
  A: 10% | B: 0% | C: x | D: -7% | E: -17% | F: -11%

> COc1ccc(CCNC(=O)c2nn(C)c3c2CS(=O)(=O)c2ccccc2-3)c(OC)c1
  A: -13% | B: -1% | C: -1% | D: 1% | E: 26% | F: 23µM*

> COCCCNC(=O)c1nn(C)c2c1CS(=O)(=O)c1ccccc1-2
  A: 2% | B: 1% | C: x | D: -14% | E: -2% | F: -2%

> CCN(CC)CCCNC(=O)c1nn(C)c2c1CS(=O)(=O)c1ccccc1-2
  A: -3% | B: 0% | C: x | D: -20% | E: 2% | F: 18µM*

> CCCOc1cccc(C(=O)N2CCCCC2CCN2CCCCC2)c1 (stereo not given)
  A: -2% | B: -1% | C: x | D: -1% | E: 0% | F: 4%

> C=CCOC(/C=C/c1ccccc1)CC (stereo not given)
  A: 8% | B: x | C: x | D: x | E: x | F: 16%

> CCc1ccc2oc(-c3cc(NC(=O)COc4ccc(C)cc4)ccc3O)nc2c1
  A: x | B: x | C: x | D: -1% | E: x | F: x

> C#CCOC(=O)Nc1cccn(Cc2c(Cl)cccc2Cl)c1=O
  A: -16% | B: 2% | C: 4% | D: u | E: -5% | F: u

> COC(=O)Nc1ccc(=O)n(Cc2c(Cl)cccc2Cl)c1
  A: 5% | B: 1% | C: -5% | D: 28µM* | E: -7% | F: 5%

> Cc1nnc(Cc2ccccc2)c2n[nH]c(C)c12
  A: x | B: -1% | C: x | D: -3% | E: x | F: x

> Cc1nnc(Cc2ccco2)c2n[nH]c(C)c12
  A: x | B: 11µM* | C: x | D: 19% | E: x | F: x

> Cc1c(Cl)cccc1NC(=O)C(=O)NCC(c1cccnc1)N1CCN(c2ccccc2)CC1 (stereo not given)
  A: 2% | B: 0% | C: x | D: 2% | E: 0% | F: -22%

> CC1CCCCN1C(=O)c1cnn2c1NC(=C1CC1)C=C2C(F)F (stereo not given)
  A: x | B: x | C: x | D: -13% | E: x | F: x

> Brc1ccc(-c2nc3ccccc3s2)s1
  A: 5% | B: 11µM* | C: u | D: 28µM* | E: -43% | F: u

> Cc1cc2nnc(SC(C)C)n2c2ccccc12
  A: -5% | B: 0% | C: 0% | D: 28µM* | E: -37% | F: -1%

> Cc1cc2nnc(SC(C)C#N)n2c2ccccc12 (stereo not given)
  A: 2% | B: 3% | C: -12% | D: -1% | E: -10% | F: 2%

> CCc1c(C)nc2ncnn2c1N1CCCC(C(=O)Nc2ccc(NC(C)=O)cc2)C1 (stereo not given)
  A: 4% | B: 0% | C: -2% | D: -2% | E: -5% | F: -2%

> CCc1c(C)nc2ncnn2c1N1CCCC(C(=O)NCc2ccc3c(c2)OCO3)C1 (stereo not given)
  A: -1% | B: -1% | C: 0% | D: 0% | E: -14% | F: 10µM*

> O=C1C(=O)N(c2ccccn2)C(c2ccc(F)cc2)/C1=C(/O)c1ccc(Br)cc1 (stereo not given)
  A: -6% | B: -1% | C: x | D: -1% | E: -8% | F: 8.2µM*

# 2 compounds drawn at random from those above, as already listed:
# Key to letters: A = A549 tox; B = Nrf2 activator; C = p53 reactivator; D = ClpP mod; E = miR-21 reporter; F = Nrf2 block
> COCCCNC(=O)c1nn(C)c2c1CS(=O)(=O)c1ccccc1-2
  A: 2% | B: 1% | C: x | D: -14% | E: -2% | F: -2%

> CCCCN(CC)CCNC(=O)c1nn(C)c2c1CS(=O)(=O)c1ccccc1-2
  A: 10% | B: 0% | C: x | D: -7% | E: -17% | F: -11%
